In PubChem BioAssay AID743126 (The Scripps Research Institute Molecular Screening Center, 2013):
The entries are a selection whose mix differs from that of the whole data set. Activity calls are given as the source filed them.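 Rule for the calls: active = inhibition above mean plus 3 SD of compounds lying within the high and low control bounds (cut at about 19% in these data); inactive = the rest.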

Protein sequences, listed by entry. Tags and fused reporters are not part of them. Lines headed by an entry give the natural chain unless they say otherwise; changes in a name come on top.
UniProt Q9NZ20: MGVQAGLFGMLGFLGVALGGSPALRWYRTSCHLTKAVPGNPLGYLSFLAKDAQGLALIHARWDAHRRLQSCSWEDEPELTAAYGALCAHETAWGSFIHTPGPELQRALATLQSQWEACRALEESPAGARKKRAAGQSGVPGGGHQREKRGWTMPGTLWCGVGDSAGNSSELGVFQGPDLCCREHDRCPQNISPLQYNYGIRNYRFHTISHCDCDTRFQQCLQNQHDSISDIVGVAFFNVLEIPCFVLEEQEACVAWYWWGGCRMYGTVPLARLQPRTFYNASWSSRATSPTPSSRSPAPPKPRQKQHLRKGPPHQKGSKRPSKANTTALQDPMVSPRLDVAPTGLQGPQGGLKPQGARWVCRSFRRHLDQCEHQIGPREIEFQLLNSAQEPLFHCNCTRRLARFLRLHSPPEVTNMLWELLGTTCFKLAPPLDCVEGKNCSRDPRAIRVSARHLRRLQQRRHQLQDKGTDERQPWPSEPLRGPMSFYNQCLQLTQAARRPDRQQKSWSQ

target: Group 3 secretory phospholipase A2 (Homo sapiens) (UniProt Q9NZ20); assay: human group III sPLA2 inhibitors, primary screen, biochemical, QFRET, BODIPY PC-A2 liposome substrate (AID 743126); conditions: QFRET BODIPY PC-A2 liposome hydrolysis, fluorescence; at 12.2 µM; active compounds read high;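 note: 0% = median of test compound wells and 100% = no enzyme DMSO wells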

Compound | inhibition
CCC1=CC2Cc3nc4ccc(Cl)cc4c(N)c3C(C1)C2 (configuration not stated) | inactive: -7.16%
CCOP(=O)(Nc1ccc(C)cn1)OCC | inactive: 2.05%
CN(CCCl)Cc1cc(Cl)c(NC2=NCCN2)c(Cl)c1 | inactive: 1.28%
CC(C)(C)C(=O)NC(Sc1ncccn1)C(Cl)(Cl)Cl (configuration not stated) | inactive: 17.1%
O=P1(N(CCCl)CCCl)NCCC(C(F)(F)F)O1 (configuration not stated) | inactive: 3.16%
Clc1n[nH]nc1-c1nn[nH][15n]1 | inactive: 0.12%
COc1ccccc1CNC(=O)COC(=O)C(O)(c1ccccc1)c1ccccc1 | inactive: -0.13%
CN(C(=O)Cc1ccc(Cl)c(Cl)c1)C1CCCC[C@@H]1N1CCCC1 (some centres not stated) | inactive: 1.84%
CC(C)/C=N\N=C(\N)N[N+](=O)[O-] | inactive: -0.78%
CN(C(=O)Cc1ccc(Cl)c(Cl)c1)[C@@H]1CCCC[C@H]1N1CCCC1 | inactive: 10.3%
CC1(CBr)Cn2c(nc3ccccc3c2=O)S1 (configuration not stated) | inactive: 3.32%
O=C(OC1CN2CCC1CC2)c1ccc(Cl)cc1 (configuration not stated) | inactive: 12.3%
CS(=O)(=O)c1ccc(Cl)c(NC(=O)COC(=O)C(O)(c2ccccc2)c2ccccc2)c1 | inactive: -10.9%
O=[As](O)(O)c1cccnc1 | inactive: -0.17%
COc1cc(C(=O)NCC2(N3CCOCC3)CCCCC2)cc(Cl)c1OC(C)C | inactive: 6.1%
Cc1cccc(OCC(=O)OC2CN3CCC2CC3)c1 (configuration not stated) | inactive: -3.77%
O=[As](O)(c1cccc(O)c1)c1cccc(O)c1 | inactive: -4.03%
Cc1ccc(NCCc2c([N+](=O)[O-])cc([N+](=O)[O-])cc2[N+](=O)[O-])cc1 | inactive: 1.01%
Nc1cccc2c([As](=O)(O)O)cccc12 | inactive: -39.8%
CCCOP(=S)(Nc1nc(N)cc(=O)[nH]1)OCCC | inactive: 3.51%
CCOP(=O)(Nc1cccc2ccccc12)OCC | inactive: 0.77%
COc1cc(C2NCCC3(OCCO3)C2(C)C)cc(OC)c1OC (configuration not stated) | inactive: 0.56%
O=P(Nc1nccs1)(Oc1ccccc1)Oc1ccccc1 | inactive: -7.9%
CCOP1(=S)c2c(C)nn(CCC#N)c2N=C(c2ccccc2F)N1C (configuration not stated) | inactive: 1.78%

Compound | inhibition
Nc1ccccc1[As](=O)(O)c1ccccc1 | inactive: -0.25%
O=C(O)COc1ccc([As](=O)(O)O)cc1[N+](=O)[O-] | inactive: -0.74%
NC(=O)Nc1ccc([As](=O)(O)O)cc1 | inactive: 3.31%
CCOP1(=S)c2c(C)nn(CCC#N)c2N=C(c2ccc(F)cc2)N1C (configuration not stated) | inactive: -0.48%
CN(C(=O)Cc1ccccc1)[C@@H]1CC[C@]2(CCCO2)C[C@H]1N1CCCC1 | inactive: 1.34%
N#CCCN(C(=O)COC(=O)C(O)(c1ccccc1)c1ccccc1)c1ccc(F)cc1 | inactive: -10.4%
CN(C(=O)Cc1ccc(Cl)c(Cl)c1)[C@H]1CC[C@@]2(CCCO2)C[C@@H]1N1CCCC1 | inactive: -6.12%
O=[N+]([O-])c1ccc2c(c1)nnn2O | inactive: 3.39%
CN(C)C(=O)c1cc([N+](=O)[O-])cc2c1-c1c(cc([N+](=O)[O-])cc1[N+](=O)[O-])C2=O | inactive: -8.2%
O=[N+]([O-])c1ccc(-c2cc([N+](=O)[O-])c(O)c([N+](=O)[O-])c2)cc1 | inactive: -12.7%
COc1cc(C(=O)NCC2(N3CCOCC3)CCCCC2)ccc1OCC(C)C | inactive: -8.3%
O=[As](O)(c1ccc(O)cc1)c1ccccc1O | inactive: -1.75%
C[As](=O)(O)c1cccc(C(=O)O)c1 | inactive: 1.41%
[N-]=[N+]=NC1CCCCC1NC(=O)c1cc([N+](=O)[O-])cc([N+](=O)[O-])c1 (configuration not stated) | inactive: 6.27%
Cc1ccc(OP(=O)(Nc2ccc([N+](=O)[O-])cn2)Oc2ccc(C)cc2)cc1 | inactive: -0.6%
Cc1ccc2nc3c(c(C)c2c1)CC(C(Cl)Cl)S3 (configuration not stated) | inactive: 3.13%
ClCCSc1nnc(-c2cccnc2)o1 | inactive: 2.79%
COC(=O)C1(C)COP(=O)(N2CCCCCC2)OC1 (configuration not stated) | inactive: 2.93%
CC(C)c1ccc(OP(=O)(Nc2ccccn2)Oc2ccccc2F)cc1 (configuration not stated) | inactive: 14.5%
CC(C)NC(=O)NP(=O)(Oc1ccccc1)Oc1ccccc1 | inactive: 4.36%
CCN(CC)C(=S)SC(NC=O)C(Cl)(Cl)Cl (configuration not stated) | inactive: 2.43%
O=C(OC1CN2CCC1CC2)c1cccc2[nH]cnc12 (configuration not stated) | inactive: 11.8%
Cc1c2c(nc3ccccc13)SC(C(Cl)Cl)C2 (configuration not stated) | inactive: -5.63%
Cc1cc(=O)[nH]c(N[N+](=O)[O-])n1 | inactive: 3.71%

Compound | inhibition
O=C(OC1CN2CCC1CC2)C12CC3CC(CC(C3)C1)C2 (configuration not stated) | inactive: -4.85%
O=P1(N(CCCl)CCCl)Nc2ccccc2N1 | inactive: 10.2%
O=P1(N(CCCl)CCCl)OCCCN1CCCl (configuration not stated) | inactive: 1.23%
COc1cc(I)ccc1[As](=O)(O)O | inactive: 9.48%
COc1ccc2nc(NP(=O)(c3ccccc3)c3ccccc3)sc2c1 | inactive: -19.2%
O=[N+]([O-])c1cc(Oc2ccc([N+](=O)[O-])cc2C(F)(F)F)cc([N+](=O)[O-])c1 | active: 24.7%
COc1ccc(N/C(=N/P(=O)(N2CCOCC2)N2CCOCC2)N2CCOCC2)cc1 | inactive: 1.9%
COC(=O)C1(C)COP(=O)(N2CCCC2)OC1 (configuration not stated) | inactive: 2.04%
COP1(=S)c2c(C)nn(CCC#N)c2N=C(c2ccc(F)cc2)N1C (configuration not stated) | inactive: 2.35%
O=C(O)C(=O)c1ccc(N(CCCl)CCCl)cc1 | inactive: -1.69%
O=C(Nc1ccncc1[N+](=O)[O-])c1ccc([N+](=O)[O-])cc1[N+](=O)[O-] | inactive: -4.79%
O=C(COc1ccccc1)OC1CN2CCC1CC2 (configuration not stated) | inactive: 5.75%
O=C(OC1CN2CCC1CC2)c1cccc([N+](=O)[O-])c1 (configuration not stated) | inactive: 4.77%
CCOC(=O)c1ccc(NC(=O)C(C)(CCl)SC)cc1 (configuration not stated) | inactive: -5.7%
CCC(C)N(CC(C)C)C(=S)SC(NC(C)=O)C(Cl)(Cl)Cl (configuration not stated) | inactive: 5.74%
CCOC(=O)Nc1ccc([As](=O)(O)O)c(O)c1 | inactive: 4.68%
O=C(O)C(O)c1ccc(N(CCCl)CCCl)cc1 (configuration not stated) | inactive: -5.7%
CC1CCNP(=O)(N(CCCl)CCCl)O1 (configuration not stated) | inactive: -0.66%
COP(=O)(OC)N1CC1c1ccccc1 (configuration not stated) | inactive: -2.44%
Cc1cc(SC(NC(=O)c2ccccc2)C(Cl)(Cl)Cl)nc(C(C)C)n1 (configuration not stated) | inactive: -4.46%
CCCCOc1ccc(C(=O)NCC2(N3CCCCC3)CCCCC2)cc1OC | inactive: 3.28%
CCOC(=O)Nc1cccc([As](=O)(O)O)c1 | inactive: 2.67%
O=P(Nc1ccccn1)(c1cccc2ccccc12)c1cccc2ccccc12 | inactive: 6.7%
O=[N+]([O-])c1ccc(Nc2ccc(Oc3ccc([N+](=O)[O-])cc3[N+](=O)[O-])cc2)c([N+](=O)[O-])c1 | inactive: -1.1%
